Values quoted from earlier work, collected in article PMC5560747, “Computational-experimental approach to drug-target interaction mapping: A case study on kinase inhibitors” (PLoS Computational Biology, 2017).

By UniProt entry, the sequences of proteins in these tests, tags left out. Residues count along the entry.
UniProt P35916, 25-1363: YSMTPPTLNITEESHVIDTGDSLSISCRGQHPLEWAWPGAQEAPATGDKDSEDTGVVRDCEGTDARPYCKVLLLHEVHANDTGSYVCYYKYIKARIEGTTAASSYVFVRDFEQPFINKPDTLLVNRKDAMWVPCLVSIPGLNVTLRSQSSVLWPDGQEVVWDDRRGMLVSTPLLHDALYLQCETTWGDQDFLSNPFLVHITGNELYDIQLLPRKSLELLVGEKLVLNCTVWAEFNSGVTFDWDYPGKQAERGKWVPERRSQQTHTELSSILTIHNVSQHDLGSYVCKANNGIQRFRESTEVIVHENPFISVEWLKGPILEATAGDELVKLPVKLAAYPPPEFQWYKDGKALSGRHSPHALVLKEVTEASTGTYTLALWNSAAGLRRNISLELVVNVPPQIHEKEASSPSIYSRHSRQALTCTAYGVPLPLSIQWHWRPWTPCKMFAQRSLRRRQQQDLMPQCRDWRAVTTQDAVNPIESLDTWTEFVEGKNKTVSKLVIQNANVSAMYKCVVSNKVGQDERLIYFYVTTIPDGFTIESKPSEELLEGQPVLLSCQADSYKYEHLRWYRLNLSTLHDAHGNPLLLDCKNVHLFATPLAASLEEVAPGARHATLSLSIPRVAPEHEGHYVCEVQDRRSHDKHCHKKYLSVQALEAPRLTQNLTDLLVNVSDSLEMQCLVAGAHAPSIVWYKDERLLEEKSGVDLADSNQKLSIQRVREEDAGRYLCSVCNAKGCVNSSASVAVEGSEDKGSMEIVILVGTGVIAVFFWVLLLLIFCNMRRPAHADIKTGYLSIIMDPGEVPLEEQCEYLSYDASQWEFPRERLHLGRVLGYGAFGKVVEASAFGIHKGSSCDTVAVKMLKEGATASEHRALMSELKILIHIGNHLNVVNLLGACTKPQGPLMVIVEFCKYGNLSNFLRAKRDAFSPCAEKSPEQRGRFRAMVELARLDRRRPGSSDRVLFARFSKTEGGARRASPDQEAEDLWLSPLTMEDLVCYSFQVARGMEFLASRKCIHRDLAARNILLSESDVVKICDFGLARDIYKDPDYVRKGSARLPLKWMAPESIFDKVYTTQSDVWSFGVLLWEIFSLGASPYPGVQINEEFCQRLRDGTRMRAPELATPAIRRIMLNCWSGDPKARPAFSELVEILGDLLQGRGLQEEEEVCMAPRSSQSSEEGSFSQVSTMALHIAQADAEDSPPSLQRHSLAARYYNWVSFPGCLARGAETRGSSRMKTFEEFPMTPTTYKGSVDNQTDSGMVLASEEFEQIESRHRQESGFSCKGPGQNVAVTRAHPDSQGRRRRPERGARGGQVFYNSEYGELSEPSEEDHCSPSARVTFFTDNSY

Biological target: FLT4 (Homo sapiens, UniProt P35916)
Conditions: cited from earlier work

Compound: COc1cc2nccc(Oc3ccc(NC(=O)Nc4cc(C)on4)c(Cl)c3)c2cc1OC [TIVOZANIB, Tivozanib]
- -LOG(PUBLISHED_VALUE) (from ChEMBL, ref PUBMED_ID 25908516): 8.34 M
- IC50 (read-out: PUBLISHED_VALUE IC50, from ChEMBL, ref PUBMED_ID 25908516): 4.55 nM
